Our source for the koff values is patent US20250230247A1 (DREN BIO, published 2025).

Experiment [1] has as its target T1, human Dectin-1 (biosensor tests of Tables 3, 4A and 9; construct not stated) (human, UniProt Q9BXN2 66-247, limits assumed).
T1 construct: also called hDectin-1
T1 sequence (looked up): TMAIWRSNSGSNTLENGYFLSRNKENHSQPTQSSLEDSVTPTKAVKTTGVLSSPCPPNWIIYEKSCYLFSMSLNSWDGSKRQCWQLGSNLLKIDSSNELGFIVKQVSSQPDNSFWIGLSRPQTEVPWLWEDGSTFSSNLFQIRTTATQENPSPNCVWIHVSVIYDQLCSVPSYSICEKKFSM
The experiment in a line: Fab K dis, average of 3.

The target of experiment [2] is T1, human Dectin-1 (biosensor tests of …). Put plainly: Fab K dis, run 2.
The target is the same in experiment [3]. The experiment in a line: Fab K dis, run 1.
The target is the same in experiment [4]. Put plainly: Fab K dis, run 3.

B1: 2M24A.29 hFab H7 (Fab, V domains shown)
VH: not shown
VL: DIQMTQSPSSVSASVGDRVTITCRASQGISSWLAWYQQKPGKAPKLLIFGASSLQSGVPSRFSGSGSGTDFTLTVSSLQPEDFATYYCQQAYSFPFTFGPGTKVDIE
notes: Fab; also called 2M24.H7
For the molecule B1, the koff – broadly, the rate constant with which the complex falls apart – stood at 0.00342 s⁻¹ in experiment [1], 0.00204 s⁻¹ in experiment [2], 0.00556 s⁻¹ in experiment [3] and 0.00267 s⁻¹ in experiment [4].
